Data published in patent publication US9353115B2, “Immune system modulators” (JANUS BIOTHERAPEUTICS, INC., priority 2011, dated 2016).

Protein sequences, listed by entry. Tags and fused reporters are not part of them. Residues count along the entry.
UniProt Q9NR96, 26-1032 limits assumed: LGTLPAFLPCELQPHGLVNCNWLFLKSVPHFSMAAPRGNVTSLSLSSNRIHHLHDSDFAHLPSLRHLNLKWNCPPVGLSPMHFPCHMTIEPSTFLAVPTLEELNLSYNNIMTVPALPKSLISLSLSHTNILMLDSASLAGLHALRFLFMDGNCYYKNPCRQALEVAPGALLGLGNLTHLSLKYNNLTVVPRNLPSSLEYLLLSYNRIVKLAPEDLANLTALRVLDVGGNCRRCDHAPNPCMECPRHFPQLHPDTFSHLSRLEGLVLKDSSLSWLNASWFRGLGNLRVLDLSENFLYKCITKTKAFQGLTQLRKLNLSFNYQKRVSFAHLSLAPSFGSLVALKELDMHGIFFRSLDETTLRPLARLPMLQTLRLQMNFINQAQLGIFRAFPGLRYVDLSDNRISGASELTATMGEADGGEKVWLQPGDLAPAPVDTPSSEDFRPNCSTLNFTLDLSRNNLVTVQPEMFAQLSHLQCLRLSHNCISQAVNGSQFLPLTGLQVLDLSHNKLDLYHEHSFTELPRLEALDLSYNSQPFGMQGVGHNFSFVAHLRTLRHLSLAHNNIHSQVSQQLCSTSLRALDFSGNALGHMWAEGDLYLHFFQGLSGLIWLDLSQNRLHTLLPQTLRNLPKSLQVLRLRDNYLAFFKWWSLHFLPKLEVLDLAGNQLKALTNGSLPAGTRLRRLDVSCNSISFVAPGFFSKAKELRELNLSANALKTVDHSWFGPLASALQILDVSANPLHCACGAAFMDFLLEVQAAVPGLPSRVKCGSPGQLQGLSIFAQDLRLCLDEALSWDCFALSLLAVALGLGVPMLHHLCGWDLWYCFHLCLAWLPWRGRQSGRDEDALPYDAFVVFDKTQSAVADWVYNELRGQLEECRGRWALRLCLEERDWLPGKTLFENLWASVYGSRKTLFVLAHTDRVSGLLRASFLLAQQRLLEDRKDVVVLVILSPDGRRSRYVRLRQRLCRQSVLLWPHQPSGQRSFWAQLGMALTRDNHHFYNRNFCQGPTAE

Molecular target: human TLR9 (hTLR9) (Homo sapiens (Human), UniProt Q9NR96)
Test: TLR9 antagonist assay in HEK-Blue-hTLR9 cells (SEAP reporter, ODN 2006 agonist)
Conditions: read-out: hTLR9 antagonism IC50, inhibition of hTLR9 dependent SEAP production, hTLR9 agonist such as ODN 2006, 1 μM, tested form: sulfate
Source text: HEK-Blue™-hTLR9 cells were obtained from InvivoGen Inc. and used to determine test compound antagonism of human TLR9 (hTLR9) driven responses. HEK-Blue™-hTLR9 cells are designed for studying the stimulation of human TLR9 by monitoring the activation of NF-kB. As described by the manufacturer, “HEK-Blue™-hTLR9 cells were obtained by co-transfection of the hTLR9 gene and an optimized secreted embryonic alkaline phosphatase (SEAP) reporter gene into HEK293 cells. The SEAP reporter gene is placed under the control of the IFN-b minimal promoter fused to five NF-kB and AP-1 binding sites. Stimulation with a TLR9 ligand activates NF-kB and AP-1 which induces the production of SEAP. Levels of SEAP can be easily determined with QUANTI-Blue™ a detection medium that turns purple/blue in the presence of alkaline phosphatase”. […]
Invivogen's QUANTI-Blue™ was prepared following the manufacturer's instructions. […] SEAP levels were determined using a spectrophotometer at 620 nm.
The concentration dependent inhibition of hTLR9 dependent SEAP production was expressed as the concentration of compound which produced half the maximal level of SEAP induced by the hTLR agonist alone. Percent activity was calculated for each observation using the formula: % activity=((observed O.D.−background O.D.)/(agonist only O.D.−background O.D.))*100. […]

## CN(C)CCN(C)c1nc(-c2ccccc2)nc2c1ncn2CCN1CCOCC1
  IC50: 2740 nM
